Source: patent US20080160099A1, “Methods For Treating or Preventing a Vascular Disease” (THE TRUSTEES OF COLUMBIA UNIVERSITY IN THE CITY OF NEW YORK, priority 2004, published 2008)

Biological target: T1, MMP-2 (Homo sapiens, UniProt P08253)
T1 construct: endogenous in cells; host or cells: fibroblasts cultured from AAA (abdominal aortic aneurysm) specimens
T1 sequence (P08253 110-660): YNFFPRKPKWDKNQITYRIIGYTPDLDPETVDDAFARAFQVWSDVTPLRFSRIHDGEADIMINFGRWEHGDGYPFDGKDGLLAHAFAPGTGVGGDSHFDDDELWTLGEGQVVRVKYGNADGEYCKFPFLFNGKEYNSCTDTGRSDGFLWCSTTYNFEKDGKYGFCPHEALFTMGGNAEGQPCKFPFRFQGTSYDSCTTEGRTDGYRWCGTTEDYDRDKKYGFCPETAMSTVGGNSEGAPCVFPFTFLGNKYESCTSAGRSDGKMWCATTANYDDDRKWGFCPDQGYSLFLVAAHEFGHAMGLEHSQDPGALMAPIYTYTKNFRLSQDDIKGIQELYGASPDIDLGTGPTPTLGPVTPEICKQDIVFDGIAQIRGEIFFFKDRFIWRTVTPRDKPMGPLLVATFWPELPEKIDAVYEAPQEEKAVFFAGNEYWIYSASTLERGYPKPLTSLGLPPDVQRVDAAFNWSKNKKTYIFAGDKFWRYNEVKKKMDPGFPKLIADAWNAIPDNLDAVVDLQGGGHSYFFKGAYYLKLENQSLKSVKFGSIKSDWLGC
Assay: MMP-2 activity in lysates of fibroblasts cultured from AAA specimens, gelatin zymography with densitometry
Format: biochemical
Parameters: key to MMP-2 Inhibitory Activity: +++ indicates a very high degree of MMP-2 inhibition relative to the other compounds tested; ++ indicates a moderate degree of MMP-2 inhibition relative to the other compounds tested; + indicates a minor degree of MMP-2 inhibition relative to the other compounds tested; − indicates that the tested compound did not inhibit MMP-2
Description: Properties of different test compounds against MMP-2 activity of aneurysmal fibroblast origin were examined on 10% polyacrylamide gels containing 1.0 mg/mL of gelatin. Fibroblasts cultured from AAA specimens were lysed using the CellLytic-M lysis/extraction reagent. The protein concentration of each supernatant was determined using the Bradford method using bovine serum albumin as a standard. The aortic fibroblast lysates were incubated alone (control) or with an illustrative Compound or Extract of the Invention at various concentrations for 1 hour on ice. After test compound incubation, equivalent amounts of proteins (30 μg) were mixed with an equal volume of sample buffer (2% SDS, 125 mM Tris-HCL, pH 6.8, 10% glycerol and 0.001% bromophenol blue) and the resulting mixture was subjected to electrophoresis in Trir-glycine el. buffer (25 mMTris pH 8.3, 250 mM Glycine, 0.1% SDS) under denatured but non-reduced conditions. After completion of electrophoresis, the gels were incubated in 2% Triton X-100 for 30 min at room temperature to ensure complete removal of SDS. […] Enzyme activity was detected as unstained bands on a blue background. Quantity One (Bio-Rad Version 4.3.1) was used as a densitometer to quantitate test compound inhibitory ability.

(−)-epigallocatechin gallate
MMP-2 inhibitory ability (in words) (aneurysmal fibroblast MMP-2): inhibit aneurysmal fibroblast MMP-2 activity
MMP-2 Inhibitory Activity (relative, aneurysmal fibroblast lysates, 1 hour incubation on ice): +++
